Test results: patent US20020155084A1, “Nanoemulsion formulations” (The Regents of the University of the Michigan, priority 2000, published 2002)

System: hairy mouse skin

## NC[C@H]1CC[C@H](C(=O)O)CC1 [tranexamic acid]
2:1 nanoemulsion, FIG. 9
  transport rate relative to inulin: roughly 1.2 times
2:1 nanoemulsion, aqueous phase 0.05 M HEPES pH 7.4, 5 μg/ml inulin or 3 μg/ml tranexamic acid, FIG. 9
  marker permeation slope: 0.283 % per hour per square centimeter
In 5% sodium lauryl sulfate (SLS), FIG. 10
  difference in permeation rates versus inulin: 5 fold
